# Data taken from BindingDB's records for US10709718.
# By UniProt entry, the sequences of proteins in these tests, tags left out.
# UniProt O75907, whole entry, looked up: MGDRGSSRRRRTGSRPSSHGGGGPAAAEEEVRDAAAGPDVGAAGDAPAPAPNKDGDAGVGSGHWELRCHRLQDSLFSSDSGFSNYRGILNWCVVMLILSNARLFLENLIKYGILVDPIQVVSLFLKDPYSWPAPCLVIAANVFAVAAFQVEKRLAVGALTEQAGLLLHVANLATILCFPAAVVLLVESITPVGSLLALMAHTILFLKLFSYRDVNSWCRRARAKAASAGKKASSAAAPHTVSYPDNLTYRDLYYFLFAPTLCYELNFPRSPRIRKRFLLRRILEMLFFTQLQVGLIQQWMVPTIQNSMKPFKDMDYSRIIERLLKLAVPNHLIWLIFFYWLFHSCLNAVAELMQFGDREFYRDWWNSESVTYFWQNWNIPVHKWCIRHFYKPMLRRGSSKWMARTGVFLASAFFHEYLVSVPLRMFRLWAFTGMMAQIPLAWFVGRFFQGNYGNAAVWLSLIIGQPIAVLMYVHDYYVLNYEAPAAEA
# pIC50: −log10 of the molar value.
# Target: Diacylglycerol O-acyltransferase 1 (Homo sapiens, UniProt O75907)
smiles,measurement,value
CCP(=O)(O)O[C@H]1CC[C@H](c2ccc(C3=Nc4c(N)ncnc4OC3(C)C)cc2)CC1,pIC50,> 8.00
